Structures can show the parent of a compound that is named as a salt. Where two headings read alike, the source gives them in different places.
Tests used:
Test in all cases: cells
Conditions in all cases: Homo sapiens
MV-4-11 cells = test system: MV-4-11 cells
MOLM-13 cells = test system: MOLM-13 cells
K562 cells = test system: K562 cells
[1] = MV4-11, 168 h, read-out: GI50, cell growth inhibitory activity, MV-4-11, day 7, MV-4-11 cells, cultured 7 days, assigned by order and values
[2] = MOLM-13, 168 h, read-out: GI50, cell growth inhibitory activity, MOLM-13, day 7, MOLM-13 cells, cultured 7 days, assigned by order and values
[3] = K562, 168 h, read-out: GI50, cell growth inhibitory activity, K562, day 7
[4] = MV4-11, 72 h, read-out: GI50, cell growth inhibitory activity, MV-4-11, day 3, MV-4-11 cells, cultured 3 days, assigned by order and values
[5] = MOLM-13, 72 h, read-out: GI50, cell growth inhibitory activity, MOLM-13, day 3, MOLM-13 cells, cultured 3 days, assigned by order and values
[6] = K562, 72 h, read-out: GI50, cell growth inhibitory activity, K562, day 3

Row | SMILES | GI50 (MV-4-11 cells; [1]) [nM] | GI50 (MOLM-13 cells; [2]) [nM] | GI50 (K562 cells; [3]) [µM] | GI50 (MV-4-11 cells; [4]) [nM] | GI50 (MOLM-13 cells; [5]) [nM] | GI50 (K562 cells; [6]) [µM]
1 | COc1nc(N(C)[C@H]2C[C@@H](NCc3ccc(-c4cc(OC)c(Oc5ccccc5)nn4)cc3)C[C@H]2O)c2cc(CC(F)(F)F)sc2n1 [Example 114, (1R,2S,4R)-4-({[4-(5-methoxy-6-phenoxypyridazin-3-yl)phenyl]methyl}amino)-2-{[2-methoxy-6-(2,2,2-trifluoroethy)thieno[2,3-d]pyrimidin-4-yl](methyl)amino}cyclopentan-1-ol hydrochloride] | 44 | 143 | 1.94 | – | – | –
2 | COc1nc(N(C)[C@H]2C[C@@H](NCC3CCN(c4cc(OC)c(OC)nn4)CC3)C[C@H]2O)c2cc(CC(F)(F)F)sc2n1 [Example 115, (1R,2S,4R)-4-({[1-(5,6-dimethoxypyridazin-3-yl)piperidin-4-yl]methyl}amino)-2-{[2-methoxy-6-(2,2,2-trifluoroethyl)thieno[2,3-d]pyrimidin-4-yl](methyl)amino}cyclopentan-1-ol hydrochloride] | 222 | 974 | > 5 | – | – | –
3 | COc1nc(N(C)[C@H]2C[C@@H](NCc3ccc(-c4cnc(N(C)C)c(OC)c4)cc3)C[C@H]2O)c2cc(CC(F)(F)F)sc2n1 [Example 117, (1R,2S,4R)-4-[({4-[6-(dimethylamino)-5-methoxypyridin-3-yl]phenyl}methyl)amino]-2-{[2-methoxy-6-(2,2,2-trifluoroethyl)thieno[2,3-d]pyrimidin-4-yl](methyl)amino}cyclopentan-1-ol hydrochloride] | 46.8 | 184 | 1.56 | – | – | –
4 | COc1nc(N(C)[C@H]2C[C@@H](NCc3ccc(-c4cc(OC)c(OC5CCN(S(C)(=O)=O)CC5)nn4)cc3)C[C@H]2O)c2cc(CC(F)(F)F)sc2n1 [Example 118, (1R,2S,4R)-4-({[4-(6-{[1-(methanesulfonyl)piperidin-4-yl]oxy}-5-methoxypyridazin-3-yl)phenyl]methyl}amino)-2-{[2-methoxy-6-(2,2,2-trifluoroethyl)thieno[2,3-d]pyrimidin-4-yl(methyl)amino}cyclopentan-1-ol hydrochloride] | 25.4 | 127 | 2.7 | – | – | –
5 | COc1nc(N(C)[C@H]2C[C@@H](NCc3cccc(Nc4cccnc4)c3)C[C@H]2O)c2cc(CC(F)(F)F)sc2n1 [Example 120, (1R,2S,4R)-2-{[2-methoxy-6-(2,2,2-trifluoroethyl)thieno[2,3-d]pyrimidin-4-yl](methyl)amino}-4-[({3-[(pyridin-3-yl)amino]phenyl}methyl)amino]cyclopentan-1-ol hydrochloride] | 225 | 729 | 2.16 | – | – | –
6 | CN(c1ncnc2sc(CC(F)(F)F)cc12)[C@H]1C[C@@H](NCc2cccc(-c3cccnc3)c2)C[C@H]1O [Example 124, (1R,2S,4R)-2-{methyl[6-(2,2,2-trifluoroethyl)thieno[2,3-d]pyrimidin-4-yl]amino}-4-({[3-(pyridin-3-yl)phenyl]methyl}amino)cyclopentan-1-ol hydrochloride] | 624 | 922 | 4.82 | – | – | –
7 | COc1cc(-c2ccc(CN[C@H]3CC[C@H](OC)[C@@H](Nc4ncnc5sc(CC(F)(F)F)cc45)C3)cc2)nnc1OC [Example 126, (1S,3S,4S)—N^1-{[4-(5,6-dimethoxypyridazin-3-yl)phenyl]methyl}-4-methoxy-N^3-[6-(2,2,2-trifluoroethyl)thieno[2,3-d]pyrimidin-4-yl]cyclohexane-1,3-diamine Hydrochloride] | 137 | 396 | 8.84 | 257 | 5030 | > 10
8 | COc1cc(-c2ccc(CN[C@H]3C[C@@H](OC)[C@@H](N(C)c4ncnc5sc(CC(F)(F)F)cc45)C3)cc2)nnc1OC [Example 127, (1R,3S,4R)—N^1-{[4-(5,6-dimethoxypyridazin-3-yl)phenyl]methyl}-4-methoxy-N^3-methyl-N^3-[6-(2,2,2-trifluoroethyl)thieno[2,3-d]pyrimidin-4-yl]cyclopentane-1,3-diamine Hydrochloride] | 92 | 242 | 4.26 | 169 | 2150 | 7.14
